Measured values reported in article PMC7734798 (ACS Medicinal Chemistry Letters, 2020).

System: Oli-Neu cells (immortalized mouse oligodendrocyte precursor cells)
Settings: 24 h; for toxicity against Oli-Neu cells (in words): 1–10 μM, MTT

Row | SMILES | cell survival/death in Oli-Neu cells, % mean ± SE of controls (MTT) (0.5 μM) | cell survival/death in Oli-Neu cells, % mean ± SE of controls (MTT) (1 μM) | cell survival/death in Oli-Neu cells, % mean ± SE of controls (MTT) (5 μM) | cell survival/death in Oli-Neu cells, % mean ± SE of controls (MTT) (10 μM) | toxicity against Oli-Neu cells (in words)
1 | CC/C=C\C/C=C\C/C=C\CCCCCCCC(=O)O [ALA, α-linolenic acid, reference compound] | 78 ± 5 ^b % | 75 ± 9% | 71 ± 8 ^b % | 68 ± 6 ^b % | 
2 | CCCC(CCC)C(=O)O [VPA, valproic acid, reference compound] | 75 ± 7 ^b % |  |  |  | 
3 | CC/C=C\C/C=C\C/C=C\CCCCCCCC(=O)NCCNC(=O)C(CCC)CCC [compound 1] | 89 ± 9% | 95 ± 8% | 88 ± 5 ^c % |  | no toxicity
4 | CC/C=C\C/C=C\C/C=C\CCCCCCCC(=O)NCCOC(=O)C(CCC)CCC [compound 2] | 110 ± 4% | 115 ± 7 ^b % | 105 ± 8% | 101 ± 8% | no toxicity

Like-named read-outs stand apart in the source and are kept apart here.
